Measured values published in patent US20260234157A1 (published 2026).

The chains behind the UniProt entries cited, without tags or fusion partners.
UniProt P10275, whole entry T878A: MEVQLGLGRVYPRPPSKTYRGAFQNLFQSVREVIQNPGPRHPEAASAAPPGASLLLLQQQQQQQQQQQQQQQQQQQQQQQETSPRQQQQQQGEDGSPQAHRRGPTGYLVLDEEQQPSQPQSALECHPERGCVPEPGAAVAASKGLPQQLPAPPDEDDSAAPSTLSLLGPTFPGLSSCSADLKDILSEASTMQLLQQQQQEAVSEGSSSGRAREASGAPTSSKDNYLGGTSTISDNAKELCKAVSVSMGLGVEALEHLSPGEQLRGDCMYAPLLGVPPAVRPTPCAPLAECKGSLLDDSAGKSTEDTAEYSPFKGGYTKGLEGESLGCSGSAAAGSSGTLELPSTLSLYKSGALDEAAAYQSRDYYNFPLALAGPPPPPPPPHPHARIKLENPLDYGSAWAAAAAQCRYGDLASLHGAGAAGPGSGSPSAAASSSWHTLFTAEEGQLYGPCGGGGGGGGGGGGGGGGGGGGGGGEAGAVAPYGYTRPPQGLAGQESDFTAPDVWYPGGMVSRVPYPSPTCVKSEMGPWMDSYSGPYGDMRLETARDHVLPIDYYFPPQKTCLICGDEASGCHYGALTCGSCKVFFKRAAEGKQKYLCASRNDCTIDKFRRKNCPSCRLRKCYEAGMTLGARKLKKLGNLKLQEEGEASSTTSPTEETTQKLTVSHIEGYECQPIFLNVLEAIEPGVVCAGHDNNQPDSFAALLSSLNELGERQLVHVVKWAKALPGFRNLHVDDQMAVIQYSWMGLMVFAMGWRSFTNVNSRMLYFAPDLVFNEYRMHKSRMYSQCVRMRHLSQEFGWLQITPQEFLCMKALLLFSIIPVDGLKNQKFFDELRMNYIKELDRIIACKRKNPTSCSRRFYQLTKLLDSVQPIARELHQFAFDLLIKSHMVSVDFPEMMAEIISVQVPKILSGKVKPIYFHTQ

Legend:
AR protein [1] = biological target: AR protein (Homo sapiens, UniProt P10275); test: Degradation of AR protein in VCaP cells (Western blot); format: cell-based; details: 8 h
AR protein [2] = biological target: AR protein (Homo sapiens, UniProt P10275, T878A); test: Degradation of AR protein in LNCaP cells (Western blot); format: cell-based; details: 8 h

- inhibition at 0.01 µM (AR protein [1]; read-out: Degradation rate of the AR protein in VCaP cells, 10 nM (%)): 47%
- inhibition at 0.1 µM (AR protein [1]; read-out: Degradation rate of the AR protein in VCaP cells, 100 nM (%)): 58%
- inhibition at 0.01 µM (AR protein [2]; read-out: Degradation rates of the AR protein in LNCaP cells, 10 nM (%)): 40%
- inhibition at 0.1 µM (AR protein [2]; read-out: Degradation rates of the AR protein in LNCaP cells, 100 nM (%)): 50%
SMILES: N#Cc1ccc(O[C@H]2CC[C@H](NC(=O)c3ccc(N4CCC(N5CCC6(CCc7cc8c(cc7O6)C(=O)N(C6CCC(=O)NC6=O)C8=O)CC5)[C@H](F)C4)nn3)CC2)cc1Cl (stereo partly shown) [Compound 24]
